Source: article PMC12319226 (Frontiers in Bioinformatics, 2025)

What was measured:
Assay in all cases: BLI
Settings in all cases: both partners purified
[1] = target: T1, Neisseria meningitidis factor H binding protein variant 1.1 (Neisseria meningitidis, UniProt Q9JXV4)
T1 construct: also called fHbp v1.1; fHbp variant 1.1

[2] = target: T2, factor H binding protein variant 1.1 (Neisseria meningitidis serogroup B …, UniProt Q9JXV4)
T2 construct: also called fHbp v1.1; v1.1 Control (0001)

[3] = target: T2, factor H binding protein variant 1.1; remark: listed apart in the source

B1: chimeric antibody hJAR5 (antibody, V domains shown)
VH: QVQMQQPGAELVKPGASVKLSCKASGYTFISYWMHWVKQRPGRGLEWIGRIAPDTGIIYYNEKFKNKATLTVDTPSSTAYMQLNSLTSEDSAVYYCARYLKYDGSTYRFDYWGQGTTLTVSS
VL: DIVMTQAAPSVPVTPGESVSISCRSSKSLLHSNGNTYLFWFLQRPGQSPQLLIYRMSNLASGVPDRFSGSGSGTSFTLRISRVEAEDVGVYYCMQHLEYPYTFGGGTKLEIK
Which Kd [1] does the source give for B1 here?
Its Kd is 0.2 to 0.7 nM.

B2: chimeric antibody hJAR5 (antibody, V domains shown)
VH: QVQMQQPGAELVKPGASVKLSCKASGYTFISYWMHWVKQRPGRGLEWIGRIAPDTGIIYYNEKFKNKATLTVDTPSSTAYMQLNSLTSEDSAVYYCARYLKYDGSTYRFDYWGQGTTLTVSS
VL: DIVMTQAAPSVPVTPGESVSISCRSSKSLLHSNGNTYLFWFLQRPGQSPQLLIYRMSNLASGVPDRFSGSGSGTSFTLRISRVEAEDVGVYYCMQHLEYPYTFGGGTKLEIK
notes: also called hJAR5-2; humanized JAR5; source: Expi293, purified (MabSelect SuRe, SEC); copies: 2 + 2
Which results are given for B2?
Kd [2]: 0.798 nM; koff [2]: 0.000617 s⁻¹; kon [2]: 773000 ± 2600 M⁻¹ s⁻¹

B3: mAb JAR5 (mouse) (antibody, V domains shown)
VH: QVQMQQPGAELVKPGASVKLSCKASGYTFISYWMHWVKQRPGRGLEWIGRIAPDTGIIYYNEKFKNKATLTVDTPSSTAYMQLNSLTSEDSAVYYCARYLKYDGSTYRFDYWGQGTTLTVSS
VL: DIVMTQAAPSVPVTPGESVSISCRSSKSLLHSNGNTYLFWFLQRPGQSPQLLIYRMSNLASGVPDRFSGSGSGTSFTLRISRVEAEDVGVYYCMQHLEYPYTFGGGTKLEIK
notes: source: Expi293, purified (MabSelect SuRe, SEC); copies: 2 + 2
What does the source list for B3?
Kd [3]: 0.237 nM; koff [3]: 0.000299 s⁻¹; kon [3]: 1.26e+06 ± 9090 M⁻¹ s⁻¹
